Results as given in patent US20040106635A1, “Spiroisoquinoline compound, a method for preparing the same and an intermediate thereof” (priority 2001, published 2004).

Amino acid sequences for entries named in this document (tags omitted). Residues count along the entry.
UniProt P22303, 32-614 limits assumed: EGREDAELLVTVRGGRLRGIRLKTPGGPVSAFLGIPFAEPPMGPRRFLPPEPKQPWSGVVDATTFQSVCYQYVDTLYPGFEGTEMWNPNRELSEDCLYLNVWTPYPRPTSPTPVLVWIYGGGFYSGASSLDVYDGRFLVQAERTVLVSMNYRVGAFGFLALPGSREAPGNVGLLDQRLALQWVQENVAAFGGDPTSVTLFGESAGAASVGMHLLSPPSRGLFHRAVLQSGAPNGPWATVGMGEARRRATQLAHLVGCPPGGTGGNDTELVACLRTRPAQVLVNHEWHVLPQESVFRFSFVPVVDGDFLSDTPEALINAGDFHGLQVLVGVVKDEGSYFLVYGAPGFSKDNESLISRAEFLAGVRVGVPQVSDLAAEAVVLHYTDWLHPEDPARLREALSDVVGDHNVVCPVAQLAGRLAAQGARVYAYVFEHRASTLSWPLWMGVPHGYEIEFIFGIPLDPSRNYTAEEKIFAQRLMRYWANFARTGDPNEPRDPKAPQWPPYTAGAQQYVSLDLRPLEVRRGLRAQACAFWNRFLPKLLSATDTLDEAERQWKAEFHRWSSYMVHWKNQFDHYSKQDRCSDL

Molecular target: acetylcholinesterase (AChE) (Homo sapiens, UniProt P22303)
Experiment: Inhibitory activity on acetylcholinesterase (AChE), Ellman method
Settings: read-out: Acetylcholinesterase inhibitory activity (IC50; μM); 25° C., pH 7.4, in the presence of 1% BSA, absorbance at 412 nm; tested form: fumarate

Compound | IC50 [nM]
CCN1CCc2cc(OC)c(OC)cc2[C@@H]1[C@H]1C[C@H](C(=O)N2CCN(c3ncnc4c3cnn4Cc3ccccc3[N+](=O)[O-])CC2)CC[C@]12c1cc(OC)c(OC)cc1CCN2C(=O)CCNC (relative stereo) | 0.3
CCN1CCc2cc(OC)c(OC)cc2[C@@H]1[C@H]1C[C@H](C(=O)N2CCN(c3ncnc4c3nnn4Cc3ccccn3)CC2)CC[C@]12c1cc(OC)c(OC)cc1CCN2C(=O)CCNC (relative stereo) | 0.08
COc1cc2c(cc1OC)[C@]1(CC[C@@H](C(=O)N3CCN(c4ncnc5c4cnn5Cc4ccccc4[N+](=O)[O-])CC3)CC1)N(C(=O)CCN(C)C)CC2 (relative stereo) | 60
